These results are taken from US11779559B2, “Compositions for treating fungal and bacterial biofilms and methods of using the same” (priority 2017, dated 2023).

The test system of assay [1] is C. albicans. The experiment in a line: Sustained inhibition biofilm assay, fungal. The following applies: 1% amino acid (unless specifically noted), p≤0.001. Format: cell-based, Candida albicans. On the procedure:
(§1) Two types of biofilm assays were performed: a sustained inhibition assay and a disruption assay. The sustained inhibition assay assesses the compound's ability to prevent biofilm development throughout all stages of biofilm formation, while the disruption assay assesses the compound's ability to break up an existing mature biofilm. These assays are described in detail in the following article: Lohse, M. B., Gulati, M., Valle Arevalo, A., Fishburn, A., Johnson, A. D., and Nobile, C. […] Antimicrobial Agents and Chemotherapy 61: e02749-16.
(§2) All bacterial biofilm solutions were prepared in Trypic Soy Broth (TSB), supplemented with 1% glucose (henceforth referred to as TSB-G). All subsequent procedures were performed in a manner that maintained sterility. A solution of each amino acid to be tested was prepared in weight to volume concentrations ranging from 0.1-5.0%. Amino acids were also tested in combinations. Compound solutions were homogenized with gentle agitation in the dark (4° C., 24 hours) before use.
(§3) Fungal strains were streaked on Yeast Peptone Dextrose (YPD) agar plates and incubated at 30° C. for 48 hours. […] Media was carefully aspirated and the biofilm was measured by optical density at 600 nm. […] Media was carefully aspirated and the biofilm was measured by optical density at 600 nm.

Assay [2] concerns C. albicans. The experiment in a line: Disruption biofilm assay, fungal. Format: cell-based, Candida albicans. The settings on record: 1% amino acid (unless specifically noted), p≤0.001. On the procedure:
as §1, §2, §3

On to `N[C@@H](CCS)C(=O)O` [Homocysteine (0.4%), L-homocysteine], for which the “Reduce F Biofilm” value in the assay on C. albicans [1] and with C. albicans [2] was “● (a single dot [ie. •] signifies minor effect (from about 10 to about 30% change))” throughout.
